Like-named read-outs stand apart in the source and are kept apart here.
What was measured:
[1] = target: aggregated tau (site where 5 binds) in AD brain tissue homogenates (Homo sapiens, UniProt P10636); assay: In vitro competition (Ki) assay versus [^3H]5, AD brain tissue homogenate; assay type: binding
[2] = target: T1, aggregated tau (site where 5 binds) in PSP brain tissue homogenates (Homo sapiens, UniProt P10636); assay: In vitro competition (Ki) assay versus [^3H]5, PSP brain tissue homogenate; assay type: binding
T1 construct: from tissue

Sequences of proteins named here, by UniProt entry; tags and fusion partners are left off. A change or cut given only in a name is not applied to a line headed by its entry. Residues count along the entry.
UniProt P10636, 623-695 limits assumed: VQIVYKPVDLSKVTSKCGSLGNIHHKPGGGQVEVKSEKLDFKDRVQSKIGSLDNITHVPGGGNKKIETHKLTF
UniProt P10636, 623-708 limits assumed: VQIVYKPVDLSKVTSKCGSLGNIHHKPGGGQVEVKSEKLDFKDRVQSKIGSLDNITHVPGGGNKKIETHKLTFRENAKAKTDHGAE
UniProt P05067, 672-713 limits assumed: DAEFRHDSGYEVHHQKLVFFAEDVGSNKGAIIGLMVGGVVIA
UniProt P30536, whole entry: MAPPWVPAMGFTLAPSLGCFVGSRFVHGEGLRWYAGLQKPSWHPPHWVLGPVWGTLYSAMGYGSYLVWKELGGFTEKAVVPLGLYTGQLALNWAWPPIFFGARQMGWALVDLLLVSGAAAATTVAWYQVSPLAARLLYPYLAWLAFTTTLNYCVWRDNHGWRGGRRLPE
UniProt P17787, 26-502: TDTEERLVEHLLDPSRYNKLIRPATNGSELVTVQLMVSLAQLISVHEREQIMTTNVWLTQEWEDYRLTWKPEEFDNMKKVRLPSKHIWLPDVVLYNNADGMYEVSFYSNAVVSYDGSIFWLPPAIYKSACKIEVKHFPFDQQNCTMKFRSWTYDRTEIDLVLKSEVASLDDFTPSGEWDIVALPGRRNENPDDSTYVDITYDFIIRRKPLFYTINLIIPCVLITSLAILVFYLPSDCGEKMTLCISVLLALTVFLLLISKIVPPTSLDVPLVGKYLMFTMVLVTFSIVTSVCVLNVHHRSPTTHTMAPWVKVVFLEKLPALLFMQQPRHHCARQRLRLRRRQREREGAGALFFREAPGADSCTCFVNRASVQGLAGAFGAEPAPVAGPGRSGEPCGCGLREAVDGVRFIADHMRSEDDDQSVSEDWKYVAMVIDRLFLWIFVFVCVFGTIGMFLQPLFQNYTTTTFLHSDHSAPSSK
UniProt P43681, 29-627: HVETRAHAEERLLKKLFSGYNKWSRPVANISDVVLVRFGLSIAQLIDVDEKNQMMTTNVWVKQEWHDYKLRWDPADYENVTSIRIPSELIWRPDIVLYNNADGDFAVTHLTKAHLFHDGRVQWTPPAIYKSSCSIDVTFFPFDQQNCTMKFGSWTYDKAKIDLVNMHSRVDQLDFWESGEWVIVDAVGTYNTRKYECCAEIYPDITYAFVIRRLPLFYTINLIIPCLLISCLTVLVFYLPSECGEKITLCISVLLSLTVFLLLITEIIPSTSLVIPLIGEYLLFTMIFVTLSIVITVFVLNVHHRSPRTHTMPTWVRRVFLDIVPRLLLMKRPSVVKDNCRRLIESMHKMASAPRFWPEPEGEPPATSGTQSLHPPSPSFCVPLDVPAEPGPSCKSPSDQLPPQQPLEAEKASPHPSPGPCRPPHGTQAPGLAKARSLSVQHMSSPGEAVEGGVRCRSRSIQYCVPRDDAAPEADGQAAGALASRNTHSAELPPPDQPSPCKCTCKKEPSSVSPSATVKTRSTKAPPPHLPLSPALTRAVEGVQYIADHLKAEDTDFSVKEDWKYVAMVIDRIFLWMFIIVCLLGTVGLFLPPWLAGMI
UniProt P35368, whole entry: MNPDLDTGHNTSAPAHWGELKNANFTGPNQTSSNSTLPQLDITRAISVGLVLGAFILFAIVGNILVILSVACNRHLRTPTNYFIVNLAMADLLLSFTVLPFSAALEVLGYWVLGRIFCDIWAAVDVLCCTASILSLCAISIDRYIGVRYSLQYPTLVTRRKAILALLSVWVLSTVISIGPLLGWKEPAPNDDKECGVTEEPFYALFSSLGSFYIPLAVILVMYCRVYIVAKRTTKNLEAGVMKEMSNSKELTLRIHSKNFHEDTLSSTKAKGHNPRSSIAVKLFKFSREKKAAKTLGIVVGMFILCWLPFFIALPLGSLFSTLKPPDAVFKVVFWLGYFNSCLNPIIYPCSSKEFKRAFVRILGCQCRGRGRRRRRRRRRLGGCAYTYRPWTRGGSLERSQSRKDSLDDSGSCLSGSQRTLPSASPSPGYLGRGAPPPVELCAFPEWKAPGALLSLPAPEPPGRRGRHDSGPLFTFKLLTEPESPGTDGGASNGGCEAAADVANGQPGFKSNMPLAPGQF
UniProt P06213, 28-1382: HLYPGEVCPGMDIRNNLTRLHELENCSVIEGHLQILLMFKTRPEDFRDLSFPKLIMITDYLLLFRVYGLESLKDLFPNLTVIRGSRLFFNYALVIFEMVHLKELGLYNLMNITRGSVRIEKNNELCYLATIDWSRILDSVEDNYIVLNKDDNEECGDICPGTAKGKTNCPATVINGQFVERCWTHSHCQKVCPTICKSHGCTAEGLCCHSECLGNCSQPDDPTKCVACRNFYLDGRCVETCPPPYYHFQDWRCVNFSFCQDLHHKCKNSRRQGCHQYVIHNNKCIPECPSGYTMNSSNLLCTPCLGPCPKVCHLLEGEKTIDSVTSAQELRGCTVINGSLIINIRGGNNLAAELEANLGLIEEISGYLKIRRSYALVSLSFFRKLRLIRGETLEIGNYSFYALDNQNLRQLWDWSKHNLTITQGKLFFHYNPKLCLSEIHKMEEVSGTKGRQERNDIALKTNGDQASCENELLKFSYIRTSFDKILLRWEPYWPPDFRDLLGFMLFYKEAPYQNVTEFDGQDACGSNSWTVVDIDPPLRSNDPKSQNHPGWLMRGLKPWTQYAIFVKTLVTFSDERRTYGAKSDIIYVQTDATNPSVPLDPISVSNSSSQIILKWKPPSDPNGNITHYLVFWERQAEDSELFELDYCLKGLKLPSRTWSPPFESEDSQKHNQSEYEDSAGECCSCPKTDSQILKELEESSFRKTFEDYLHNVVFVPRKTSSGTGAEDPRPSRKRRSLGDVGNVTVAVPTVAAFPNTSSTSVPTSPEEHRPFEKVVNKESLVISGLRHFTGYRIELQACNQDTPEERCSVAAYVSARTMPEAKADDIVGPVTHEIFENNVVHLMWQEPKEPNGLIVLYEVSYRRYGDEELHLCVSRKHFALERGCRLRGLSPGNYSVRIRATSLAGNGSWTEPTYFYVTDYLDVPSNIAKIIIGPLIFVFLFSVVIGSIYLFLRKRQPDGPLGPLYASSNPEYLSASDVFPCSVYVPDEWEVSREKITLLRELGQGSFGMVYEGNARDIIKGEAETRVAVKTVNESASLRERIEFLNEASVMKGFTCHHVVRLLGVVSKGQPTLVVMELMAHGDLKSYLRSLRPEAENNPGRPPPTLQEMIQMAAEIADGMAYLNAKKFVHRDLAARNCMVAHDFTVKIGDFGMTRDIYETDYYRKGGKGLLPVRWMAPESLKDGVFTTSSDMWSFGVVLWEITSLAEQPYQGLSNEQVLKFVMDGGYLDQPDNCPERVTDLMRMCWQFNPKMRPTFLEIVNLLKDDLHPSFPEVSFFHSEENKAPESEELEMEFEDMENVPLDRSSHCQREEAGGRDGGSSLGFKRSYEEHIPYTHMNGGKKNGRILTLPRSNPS

[3] = target: T2, aggregated tau (4R-tau) in CBD brain tissue homogenates (Homo sapiens, UniProt P10636); assay: biochemical
[4] = target: T3, aggregated tau (site where 5 binds) in CBD brain tissue homogenates (Homo sapiens, UniProt P10636); assay: In vitro competition (Ki) assay versus [^3H]5, CBD brain tissue homogenate; assay type: binding
T3 construct: from tissue; host or cells: post-mortem human CBD brain, middle frontal gyrus homogenate

[5] = target: T2, aggregated tau (4R-tau) in CBD brain tissue homogenates; assay: biochemical; remark: listed apart in the source
[6] = target: T4, aggregated tau (4R-tau) in PSP brain tissue homogenates (Homo sapiens, UniProt P10636); assay: In vitro competition (Ki) assay versus [^3H]7, PSP brain tissue homogenate; assay type: binding
T4 construct: from tissue

[7] = target: T4, aggregated tau (4R-tau) in PSP brain tissue homogenates; assay: In vitro competition (Ki) assay versus [^3H]8, PSP brain tissue homogenate; assay type: binding
[8] = target: T2, aggregated tau (4R-tau) in CBD brain tissue homogenates; assay: In vitro competition (Ki) assay versus [^3H]3, CBD brain tissue homogenate; assay type: binding; parameters: from tissue; host or cells: post-mortem human CBD brain, middle frontal gyrus homogenate
[9] = target: T4, aggregated tau (4R-tau) in PSP brain tissue homogenates; assay: In vitro competition (Ki) assay versus [^3H]3, PSP brain tissue homogenate; assay type: binding
[10] = target: T5, aggregated tau (mixed 3R/4R-tau) in AD brain tissue homogenates (Homo sapiens, UniProt P10636); assay: In vitro competition (Ki) assay versus [^3H]3, AD brain tissue homogenate; assay type: binding
[11] = target: T5, aggregated tau (mixed 3R/4R-tau) in AD brain tissue homogenates; assay: In vitro competition (Ki) assay versus [^3H]8, AD brain tissue homogenate; assay type: binding
[12] = target: T6, PiB binding site on amyloid-β in AD brain tissue homogenates (Homo sapiens, UniProt P05067); assay: In vitro competition (Ki) assay versus [^3H]PiB, AD brain tissue homogenate
T6 construct: from tissue; host or cells: post-mortem human AD brain, middle frontal gyrus homogenate

[13] = target: T5, aggregated tau (mixed 3R/4R-tau) in AD brain tissue homogenates; assay: In vitro competition (Ki) assay versus [^3H]7, AD brain tissue homogenate; assay type: binding
BZDp (TSPO) (h) = BZDp (TSPO) (h) (Homo sapiens, UniProt P30536); assay: Eurofins panel: BZDp (TSPO) (h) (antagonist radioligand)
[14] = target: N neuronal alpha4beta2 (h) (Homo sapiens, UniProt P17787+P43681); settings: reference compound
GABA transporter = GABA transporter (Rattus norvegicus, UniProt P23978); settings: Specific binding; reference compound
alpha1B (h) = alpha1B (h) (Homo sapiens, UniProt P35368); settings: reference compound
IRK (h) (InsR) = IRK (h) (InsR) (Homo sapiens, UniProt P06213); settings: Enzymatic activity; reference compound
[15] = AD brain tissue homogenate, radioligand [^3H]5, read-out: Ki versus [^3H]5, AD tissue
[16] = PSP brain tissue homogenate, radioligand [^3H]5, read-out: Ki versus [^3H]5, PSP tissue
[17] = CBD brain tissue homogenate, radioligand [^3H]5, read-out: Ki versus [^3H]5, CBD tissue

Row | Compound | Ki [3] | Ki [5] | further results
1 | Fc1ccc2cc(-c3cnc(N4CCCCC4)nc3)[nH]c2c1 [Compound 21, 6-Fluoro-2-(2-(piperidin-1-yl)pyrimidin-5-yl)-1H-indole] | 12 nM | 6.3 nM | Ki [1, 15]: 182 nM; Ki [2, 16]: 185 nM; Ki [4, 17]: 189 nM
2 | OC1CN(c2ncc(-c3cc4ccc(F)cc4[nH]3)cn2)CC1F (stereo not drawn) [Compound 27, 4-Fluoro-1-(5-(6-fluoro-1H-indol-2-yl)pyrimidin-2-yl)pyrrolidin-3-ol] | 10 nM | 9 nM | Ki [1, 15]: 214 nM; Ki [2, 16]: 219 nM; Ki [4, 17]: 273 nM
3 | COC1CCN(c2ncc(-c3cc4ccc(F)cc4[nH]3)cn2)CC1 [Compound 42, 6-Fluoro-2-(2-(4-methoxypiperidin-1-yl)pyrimidin-5-yl)-1H-indole] | 14 nM | 8.2 nM | –
4 | O=C1CCN(c2ncc(-c3cc4ccc(F)cc4[nH]3)cn2)CC1 [Compound 44, 1-(5-(6-Fluoro-1H-indol-2-yl)pyrimidin-2-yl)piperidin-4-one] | 15 nM | 17 nM | –
5 | Fc1ccc2cc(-c3ccc(N4CCCCC4)nc3)[nH]c2c1 [Compound 45, 6-Fluoro-2-(6-(piperidin-1-yl)pyridin-3-yl)-1H-indole] | 5.9 nM | 6.2 nM | Ki [1, 15]: 188 nM; Ki [2, 16]: 218 nM; Ki [4, 17]: 221 nM
6 | Fc1ccc2cc(-c3ccc(N4CCOCC4)nc3)[nH]c2c1 [Compound 46, 4-(5-(6-Fluoro-1H-indol-2-yl)pyridin-2-yl)morpholine] | 12 nM | 11 nM | Ki [1, 15]: 185 nM; Ki [2, 16]: 227 nM; Ki [4, 17]: 229 nM
7 | Fc1nc(N2CCOCC2)ccc1-c1cc2ccccc2[nH]1 [Compound 75, 4-(6-Fluoro-5-(1H-indol-2-yl)pyridin-2-yl)morpholine] | 11 nM | 13 nM | Ki [6]: 10 nM; Ki [7]: 10 nM; Ki [8]: 30 nM; Ki [1]: 203 nM; Ki [2]: 335 nM; Ki [9]: 28 nM; Ki [10]: 22 nM; Ki [11]: 6.5 nM; Ki [4]: 360 nM; Ki [12]: 61 ± 3 nM; Ki [13]: 9.2 nM
8 | Fc1ccc2[nH]c(-c3cnc(N4CCOCC4)nc3)cc2c1 [Compound 78, 4-(5-(5-Fluoro-1H-indol-2-yl)pyrimidin-2-yl)morpholine] | 10 nM | – | –
9 | Fc1ccc2[nH]c(-c3ccc(N4CCOCC4)nc3)cc2c1 [Compound 79, 4-(5-(5-Fluoro-1H-indol-2-yl)pyridin-2-yl)morpholine] | 7.7 nM | – | –
10 | Fc1ccc2cc(-c3ccc(N4CCCCC4)nc3F)[nH]c2c1 [Compound 81, 6-Fluoro-2-(2-fluoro-6-(piperidin-1-yl)pyridin-3-yl)-1H-indole] | 26 nM | – | –
11 | Fc1ccc2cc(-c3cnc(N4CCOCC4)cn3)[nH]c2c1 [Compound 87, 4-(5-(6-Fluoro-1H-indol-2-yl)pyrazin-2-yl)morpholine] | 8.2 nM | – | –
12 | Fc1ccc2cc(-c3cnc(N4CCCCC4)c(F)c3)[nH]c2c1 [Compound 89, 6-Fluoro-2-(5-fluoro-6-(piperidin-1-yl)pyridin-3-yl)-1H-indole] | 8.7 nM | – | –
13 | Fc1ccc2cc(-c3cnc(N4CCOCC4)c(F)c3)[nH]c2c1 [Compound 90, 4-(3-Fluoro-5-(6-fluoro-1H-indol-2-yl)pyridin-2-yl)morpholine] | 18 nM | – | –
14 | Fc1cc(N2CCOCC2)ncc1-c1cc2ccccc2[nH]1 [Compound 94, 4-(4-Fluoro-5-(1H-indol-2-yl)pyridin-2-yl)morpholine] | 12 nM | – | –
15 | Fc1cc(-c2cc3ccccc3[nH]2)cnc1N1CCCCC1 [Compound 95, 2-(5-Fluoro-6-(piperidin-1-yl)pyridin-3-yl)-1H-indole] | 14 nM | – | –
16 | Fc1cc(-c2cc3ccccc3[nH]2)cnc1N1CCOCC1 [Compound 96, 4-(3-Fluoro-5-(1H-indol-2-yl)pyridin-2-yl)morpholine] | 9.5 nM | – | –
17 | Fc1cc(N2CCCCC2)cnc1-c1cc2ccccc2[nH]1 [Compound 98, 2-(3-Fluoro-5-(piperidin-1-yl)pyridin-2-yl)-1H-indole] | 16 nM | – | –
18 | Fc1cc(N2CCOCC2)cnc1-c1cc2ccccc2[nH]1 [Compound 103, 4-(5-Fluoro-6-(1H-indol-2-yl)pyridin-3-yl)morpholine] | 22 nM | – | –
19 | Fc1cc(-c2cc3ccccc3[nH]2)ncc1N1CCOCC1 [Compound 105, 4-(4-Fluoro-6-(1H-indol-2-yl)pyridin-3-yl)morpholine] | 49 nM | – | –
20 | Fc1ccc2cc(-c3cc(F)c(N4CCOCC4)cn3)[nH]c2c1 [Compound 106, 4-(4-Fluoro-6-(6-fluoro-1H-indol-2-yl)pyridin-3-yl)morpholine] | 56 nM | – | –
21 | FCCOCCOC1CCN(c2ncc(-c3cc4ccccc4[nH]3)cn2)CC1 [Compound 108, 2-(2-(4-(2-(2-Fluoroethoxy)ethoxy)piperidin-1-yl)pyrimidin-5-yl)-1H-indole] | 30 nM | 39 nM | –
22 | Fc1ccc2cc(-c3cnc(N4CC[C@@H](F)C4)nc3)[nH]c2c1 [Compound (R)-43, (R)-6-Fluoro-2-(2-(3-fluoropyrrolidin-1-yl)pyrimidin-5-yl)-1H-indole] | 20 nM | 15 nM | –
23 | CCC(C)N(C)C(=O)c1cc2ccccc2c(-c2ccccc2Cl)n1 (stereo not drawn) [PK 11195] | – | – | IC50 (BZDp (TSPO) (h)): 11.9 nM; Ki (BZDp (TSPO) (h)): 10.9 nM
24 | CN1CCC[C@H]1c1cccnc1 [nicotine] | – | – | nH, Specific binding [14]: 0.827
25 | O=C(O)C1CCCNC1 (stereo not drawn) [nipecotic acid] | – | – | nH (GABA transporter): 1.27
26 | COc1cc2nc(N3CCN(C(=O)c4ccco4)CC3)nc(N)c2cc1OC [prazosin] | – | – | nH, Specific binding (alpha1B (h)): 1.079
27 | CN[C@@H]1C[C@H]2O[C@@](C)([C@@H]1OC)n1c3ccccc3c3c4c(c5c6ccccc6n2c5c31)C(=O)NC4 [staurosporine] | – | – | nH (IRK (h) (InsR)): 1.241

Source: publication PMC11956013, “Structure–Activity Relationships and Evaluation of 2-(Heteroaryl-cycloalkyl)-1H-indoles as Tauopathy Positron Emission Tomography Radiotracers” (Journal of Medicinal Chemistry, 2025)
